Data: paper PMC12587390, “Metabolite Identification Data in Drug Discovery, Part 1: Data Generation and Trend Analysis” (Molecular Pharmaceutics, 2025)

Key:
[1] = beagle, in vivo
[2] = Han Wistar, in vivo, po

Cn1cc(NC(=O)C2CCCCC2C(=O)c2ccc(-c3cc[nH]n3)cc2)c(C(F)(F)F)n1 (stereo not drawn) [Cmpd 16, Cn1cc(NC(=O)[C@@H]2CCCC[C@H]2C(=O)c2ccc(-c3cc[nH]n3)cc2)c(C(F)(F)F)n1]
% of the total MS area, Dog Plasma (Female) [1]: 85% | % of the total MS area, Rat Plasma (Female) ([2]; female): 85% | % of the total MS area, Rat Plasma (Male) ([2]; male): 41%
